Bioassay records: PubChem BioAssay, ICCB-Longwood Screening Facility, Harvard Medical School
Sampled rows, rich in hits. Any-hit rate of the full collection: about 0.46%.
GIV Gai3 FP – inhibitors of GIV peptide binding to Galpha-i3, primary screen, biochemical, fluorescence polarization, FITC-GIV GBA peptide, rat Galphai3 | Guanine nucleotide-binding protein G(i) subunit alpha-3 (Rattus norvegicus), P08753 | 90 min; hits give low values; scaled: aluminum fluoride 0%, vehicle 100% | percent of control (FP), % (test concentration not listed) | hit rate 0.42% among 210,000 | AID 1224905, 2016;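 active = replicate mean at 85% of control or lower, very high polarization wells dropped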;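 note: wells of about 15 µL received 100 nL stock; the first replicate is given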
HCMV NEC inh – cytomegalovirus nuclear egress complex inhibition | HTRF UL50-UL53 interaction, normalized percent inhibition | inhibition, % (test concentration not listed) | 0.15% of 190,000 active | AID 1918969; in the data active = inhibition above about 27%, passing the limit was not always enough
GIV Gai FP conf – GIV-Galpha-i3 inhibition, FP confirmation | shares compounds with GIV Gai3 FP | FITC-GIV peptide binding to Galphai3, fluorescence polarization; active compounds read low | fluorescence polarization, mP at 100 µM | 38% of 580 active | AID 1259350;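 active = inhibition score of 15 or more, meaning 100 minus mean polarization as percent of control over three replicates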;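 also: lower mP means peptide displaced from Galphai3 so more inhibition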
GIV Gai AS conf – confirmation of inhibitors of GIV binding to human Galpha-i3; shares compounds with GIV Gai3 FP; AlphaScreen Galphai3-GIV binding, purified proteins, 90 min; active compounds read low; AlphaScreen counts at 100 µM; 39% of 580 active; AID 1259351;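 active = inhibition score at or above a set limit, where the score is 100 minus the three-replicate mean percent of control signal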
Active calls of the source: *; · = no result.

Amino acid sequences for entries named in this document (tags omitted).
Guanine nucleotide-binding protein G(i) subunit alpha-3 (Rattus norvegicus), P08753, UniProt P08753, whole entry, looked up: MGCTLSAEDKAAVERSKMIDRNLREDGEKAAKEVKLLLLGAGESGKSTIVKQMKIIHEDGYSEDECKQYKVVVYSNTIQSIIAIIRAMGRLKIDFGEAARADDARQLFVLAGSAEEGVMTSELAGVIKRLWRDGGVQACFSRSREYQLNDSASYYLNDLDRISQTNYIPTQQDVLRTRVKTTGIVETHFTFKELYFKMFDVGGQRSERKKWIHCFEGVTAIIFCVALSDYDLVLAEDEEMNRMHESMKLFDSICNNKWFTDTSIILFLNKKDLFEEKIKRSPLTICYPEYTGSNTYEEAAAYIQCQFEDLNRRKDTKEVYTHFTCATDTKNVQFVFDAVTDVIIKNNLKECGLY

Fields: GIV Gai3 FP	HCMV NEC inh	GIV Gai FP conf	GIV Gai AS conf
CCC(C)C(NC(=O)c1ccccc1NC(=O)c1ccc(OC)cc1)C(=O)N1CCOCC1 (stereo not given)
  ·	-24.7	·	·
Cc1ccc(-n2nc3c(n2)/C(=N/O)CCC3)cc1
  78.7*	46.8*	66.2	23948*
COc1ccc(-c2nc3c(n2O)CCC/C3=N\O)cc1
  100.2	-34.6	·	·
Cc1cc(C(=O)CSc2nnc3sc4ccccc4n23)c(C)n1-c1ccc(Cl)cc1
  103.2	-13.2	·	·
Cc1c(O)cccc1C(=O)NC(CSc1ccccc1)C(O)CN1CC2CCCCC2CC1C(=O)NC(C)(C)C (stereo not given)
  ·	-31.2	·	·
Cc1cccc(-c2nn3c(=O)cc(N4CCN(C(=O)Nc5ccc6c(c5)OCO6)CC4)nc3s2)c1
  102.0	23.9	·	·
Cc1ccccc1-c1nn2c(=O)cc(N3CCN(C(=O)Nc4ccccc4)CC3)nc2s1
  96.7	-11.3	·	·
Cc1ccccc1-c1nn2c(=O)cc(N3CCN(C(=O)Nc4cccc(F)c4)CC3)nc2s1
  87.8	-12.7	80.5	28810
Cc1cccc(NC(=O)N2CCN(c3cc(=O)n4nc(-c5cccc(C)c5)sc4n3)CC2)c1
  87.3	19.4	80.9	25822
Nc1nnc(-c2ccc3nsnc3c2)o1
  105.9	1.8	·	·
Nc1ccc2nsnc2c1
  46.4*	96.1*	5.43*	3926*
Cc1cccc(NC(=O)c2sc3nc4c(cc3c2N)CN(Cc2ccccc2)CC4)c1
  99.6	-22.3	·	·
Nc1c(C(=O)Nc2cccc(Cl)c2)sc2nc3c(cc12)CN(Cc1ccccc1)CC3
  78.9*	-43.7	81.4	31968
COc1ccc(NC(=O)c2sc3nc4c(cc3c2N)CCCCCC4)cc1OC
  80.2*	-47.0	81	34749
COc1ccccc1NC(=O)c1sc2nc3c(cc2c1N)CCCCCC3
  104.4	-22.0	·	·
CC(C)Oc1ccc(CNC(=O)Cn2c(-c3cccs3)cc3ccccc32)cc1
  105.7	·	·	·
CCc1cc2c(cc3n2CC(C)(C(=O)NC2CCCCC2)N(CC2CCCO2)C3=O)s1 (stereo not given)
  107.5	-2.3	·	·
CCOC(=O)CC(=O)CSc1nc(-c2cccs2)cc(-c2cccs2)c1C#N
  115.4	·	·	·
CCOC(=O)CC(=O)CSc1nc2c(c(-c3cccs3)c1C#N)CCC2
  96.1	·	68.3	43008
Cc1cn(CCC(=O)NC2Cc3ccccc3C2)c2ccccc12
  101.5	6.4	·	·
Cc1ccc(-c2c(-c3nn(C)c4ncnc(N5CCC(N6CCCCC6)C5)c34)cnn2C)cc1 (stereo not given)
  ·	-2.0	·	·
COc1ccc(C2c3sc(=O)[nH]c3SC3C(=O)N(c4ccccc4)C(=O)C32)cc1 (stereo not given)
  111.6	-25.2	·	·
O=C1NC(=O)C2C1Sc1[nH]c(=O)sc1C2c1ccco1 (stereo not given)
  78.3*	-86.3	64.8	3023*
O=C(NCc1cccs1)c1cccnc1SCCS(=O)(=O)c1ccc(C(F)(F)F)cn1
  98.1	-13.7	·	·
Oc1oc(-c2cccc3ccccc23)nc1C=NC1CCCCC1
  104.9	·	·	·
CCOC(=O)C1CCN(c2c(S(=O)(=O)c3ccccc3)cnc3ccc(F)cc23)CC1
  105.0	-14.4	·	·
COc1ccccc1NC(=O)c1c(N=Cc2c(O)ccc3ccccc23)cnn1C
  107.7	·	·	·
Oc1ccc2ccccc2c1C=Nc1cccn2cc(-c3ccccc3)nc12
  -9.9*	·	9.83*	37990
CC(C)OCC1Cn2c(nc3c2c(=O)n(C)c(=O)n3C)O1 (stereo not given)
  95.5	-12.7	·	·
CN(c1ccc(Br)cc1)S(=O)(=O)c1ccc2[nH]cc(C(=O)NCc3ccccn3)c(=O)c2c1
  64.0*	·	47.6*	60749

Marked active in GIV Gai AS conf, of those listed so far:
| structure | GIV Gai3 FP | GIV Gai FP conf | GIV Gai AS conf |
| --- | --- | --- | --- |
| Cc1ccc(-n2nc3c(n2)/C(=N/O)CCC3)cc1 | 78.7* | 66.2 | 23948* |
| Nc1ccc2nsnc2c1 | 46.4* | 5.43* | 3926* |
| O=C1NC(=O)C2C1Sc1[nH]c(=O)sc1C2c1ccco1 (stereo not given) | 78.3* | 64.8 | 3023* |

New compounds follow
Fields: GIV Gai3 FP	HCMV NEC inh	GIV Gai FP conf	GIV Gai AS conf
CCCCCCNC(=O)c1c[nH]c2ccc(S(=O)(=O)N(C)c3ccc(Br)cc3)cc2c1=O
  111.6	·	·	·
Cc1csc(-c2cc(S(=O)(=O)NC(C)(C)C)cn2CC(=O)N2CCCC2)n1
  113.7	·	·	·
CCN(CC)C(=O)/C=C/c1ccc2c(c1)OCO2
  102.2	·	·	·
CC(C)(O)C(=O)/C=C/c1ccc2c(c1)OCO2
  83.6*	-3.5	69.4	27857*
COc1ccccc1-c1nc2c3ccccc3ncn2n1
  113.1	-15.8	·	·
COc1cccc(-c2nc3c4ccccc4ncn3n2)c1
  78.4*	-9.0	65.6	41785
O=C1c2cc(S(=O)(=O)N3CCCCC3)cc([N+](=O)[O-])c2-c2c1cc(S(=O)(=O)N1CCCCC1)cc2[N+](=O)[O-]
  109.4	·	·	·
O=[N+]([O-])c1cc(S(=O)(=O)O)cc2c1-c1c(cc(S(=O)(=O)O)cc1[N+](=O)[O-])C2
  86.1	·	62.2	17742*
Cc1ccc2oc(=O)c(/C=C(\O)c3ccco3)nc2c1
  109.1	-23.9	·	·
COc1ccc(/C(O)=C/c2nc3cc(C)ccc3oc2=O)c(OC)c1
  53.9*	-23.3	147	40985
CN1CCN(CCNC(=O)c2cnn(-c3ccc(Cl)cc3)c2C2CCN(C(=O)OC(C)(C)C)CC2)CC1
  105.2	·	·	·
COC(=O)c1ccc(N2N=C(C)/C(=C/c3ccc(-c4cccc(C(=O)O)c4)o3)C2=O)cc1
  85.6	-20.0	56.2	18724*
CCOC(=O)c1cccc(-c2ccc(/C=C3\C(=O)N(c4cccc(C(=O)O)c4)N=C3C)o2)c1
  92.9	-26.9	·	·
O=C(Nc1ccccc1C(=O)OCc1cc(=O)n2c3c(sc2n1)CCCC3)c1ccc(Cl)cc1
  98.0	·	·	·
CCOC(=O)c1c(-c2ccco2)csc1NC(=O)COC(=O)CCc1nc2ccccc2c(=O)[nH]1
  ·	-29.2	·	·
CCOC(=O)c1c(-c2ccc(Br)cc2)csc1/N=C/c1c(C)[nH]n(-c2ccccc2)c1=O
  75.2*	-10.2	67.8	41072
CCOC(=O)c1c(-c2ccc(Br)cc2)csc1/N=C/C1C(=O)NC(=S)NC1=O
  90.3	·	·	·
CCOC(=O)C1=C(C)N=c2s/c(=C\c3cc([N+](=O)[O-])ccc3N3CCOCC3)c(=O)n2C1c1cccc(OC)c1 (stereo not given)
  90.1	-20.7	62.5	56560
CCOC(=O)C1=C(C)N=c2s/c(=C\c3cc([N+](=O)[O-])ccc3N3CCOCC3)c(=O)n2C1c1ccccc1 (stereo not given)
  97.5	-2.9	·	·
COC(=O)/C=C/C(=O)N1CCN(c2ccccc2OC)CC1
  107.5	10.4	·	·
Cc1[nH]c(C)c(S(=O)(=O)NC2CCN(Cc3ccccc3)CC2)c1C(=O)N1CCCC1
  102.3	-22.1	·	·
O=C(Nc1ccc2c(c1)OCO2)N1CCC(c2nc(-c3ccc(F)cc3)no2)CC1
  98.4	-28.7	·	·
COC(=O)CNC(c1ccccc1)c1cc(Br)ccc1NC(=O)c1cc(OC)c(OC)c(OC)c1 (stereo not given)
  101.6	-28.7	·	·
COc1ccc(OC)c(C2=NS(=O)(=O)N(C)C(C(=O)Nc3ccc(F)cc3F)=C2)c1
  94.5	-21.4	80.4	32539
Cc1ccc(C2=NS(=O)(=O)N(C)C(C(=O)Nc3ccc(F)cc3F)=C2)cc1
  105.9	-33.6	·	·
CN(C)c1ccc(-c2nc3c([nH]2)c(=O)n(C)c(=O)n3C)cc1
  75.4*	·	85.2	28569
Cn1c(=O)c2[nH]c(-c3ccccc3)nc2n(C)c1=O
  98.5	-21.0	·	·
Cc1ccc(NC(=O)Cn2ccn(-c3ccc(F)c(F)c3)c(=O)c2=O)cc1C
  105.6	-21.9	·	·

An excerpt from above, showing only HCMV NEC inh and GIV Gai3 FP.
| smiles | HCMV NEC inh | GIV Gai3 FP |
| --- | --- | --- |
| COc1ccccc1-c1nc2c3ccccc3ncn2n1 | -15.8 | 113.1 |
| COc1cccc(-c2nc3c4ccccc4ncn3n2)c1 | -9.0 | 78.4* |
